The chains behind the UniProt entries cited, without tags or fusion partners. Residues count along the entry.
UniProt P03956, 100-469 limits assumed: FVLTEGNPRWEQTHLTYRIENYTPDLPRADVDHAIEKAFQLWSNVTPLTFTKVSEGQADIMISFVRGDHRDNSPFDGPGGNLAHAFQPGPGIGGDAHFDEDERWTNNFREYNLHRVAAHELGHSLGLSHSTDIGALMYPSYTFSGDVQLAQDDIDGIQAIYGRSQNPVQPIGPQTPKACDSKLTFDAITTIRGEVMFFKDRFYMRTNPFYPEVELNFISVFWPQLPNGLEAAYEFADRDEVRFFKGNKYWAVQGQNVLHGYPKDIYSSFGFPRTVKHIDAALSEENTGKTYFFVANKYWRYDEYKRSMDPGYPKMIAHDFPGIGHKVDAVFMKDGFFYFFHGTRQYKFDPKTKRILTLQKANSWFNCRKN
UniProt P08253, 110-660 limits assumed: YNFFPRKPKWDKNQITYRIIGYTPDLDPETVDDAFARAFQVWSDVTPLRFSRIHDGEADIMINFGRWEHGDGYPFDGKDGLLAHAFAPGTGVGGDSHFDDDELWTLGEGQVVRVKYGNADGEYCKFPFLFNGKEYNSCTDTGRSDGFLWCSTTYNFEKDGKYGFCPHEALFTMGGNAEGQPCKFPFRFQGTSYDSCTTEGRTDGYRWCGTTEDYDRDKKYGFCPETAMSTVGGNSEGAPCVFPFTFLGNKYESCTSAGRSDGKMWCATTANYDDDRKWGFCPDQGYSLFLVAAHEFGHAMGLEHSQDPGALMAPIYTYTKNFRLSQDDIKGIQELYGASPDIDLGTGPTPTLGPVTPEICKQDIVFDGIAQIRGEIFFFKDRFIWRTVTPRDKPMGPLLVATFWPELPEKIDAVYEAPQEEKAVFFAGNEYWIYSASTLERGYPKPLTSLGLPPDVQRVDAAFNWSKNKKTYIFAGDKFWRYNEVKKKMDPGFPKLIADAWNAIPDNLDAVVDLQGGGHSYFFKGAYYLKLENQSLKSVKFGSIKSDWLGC
UniProt P08254, 100-477 limits assumed: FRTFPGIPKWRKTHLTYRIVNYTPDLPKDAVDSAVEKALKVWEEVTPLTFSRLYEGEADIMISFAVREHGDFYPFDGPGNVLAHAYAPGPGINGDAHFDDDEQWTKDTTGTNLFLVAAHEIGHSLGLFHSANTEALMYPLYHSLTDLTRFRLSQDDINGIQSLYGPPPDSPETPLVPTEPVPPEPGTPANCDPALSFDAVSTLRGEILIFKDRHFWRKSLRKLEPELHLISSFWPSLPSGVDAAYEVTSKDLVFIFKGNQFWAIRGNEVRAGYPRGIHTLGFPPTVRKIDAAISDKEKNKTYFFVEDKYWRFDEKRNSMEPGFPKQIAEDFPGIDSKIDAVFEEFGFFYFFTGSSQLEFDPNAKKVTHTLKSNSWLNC
UniProt P78536, 215-824 limits assumed: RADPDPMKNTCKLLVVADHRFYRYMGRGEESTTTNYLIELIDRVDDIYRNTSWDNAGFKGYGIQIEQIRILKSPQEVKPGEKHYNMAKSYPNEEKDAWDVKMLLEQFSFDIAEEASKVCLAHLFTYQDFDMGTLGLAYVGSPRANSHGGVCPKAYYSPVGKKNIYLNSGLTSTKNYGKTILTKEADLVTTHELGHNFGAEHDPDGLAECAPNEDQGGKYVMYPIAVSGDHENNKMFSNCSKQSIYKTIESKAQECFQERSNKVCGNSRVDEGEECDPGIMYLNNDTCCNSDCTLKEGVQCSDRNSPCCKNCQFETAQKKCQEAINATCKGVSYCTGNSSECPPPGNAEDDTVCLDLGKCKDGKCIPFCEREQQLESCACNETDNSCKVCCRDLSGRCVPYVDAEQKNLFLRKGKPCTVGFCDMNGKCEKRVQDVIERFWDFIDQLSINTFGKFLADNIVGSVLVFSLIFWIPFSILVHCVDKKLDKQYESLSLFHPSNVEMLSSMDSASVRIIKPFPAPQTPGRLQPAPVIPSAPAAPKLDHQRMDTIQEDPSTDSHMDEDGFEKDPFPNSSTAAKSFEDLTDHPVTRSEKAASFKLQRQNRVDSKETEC
UniProt P05979, 25-600 limits assumed: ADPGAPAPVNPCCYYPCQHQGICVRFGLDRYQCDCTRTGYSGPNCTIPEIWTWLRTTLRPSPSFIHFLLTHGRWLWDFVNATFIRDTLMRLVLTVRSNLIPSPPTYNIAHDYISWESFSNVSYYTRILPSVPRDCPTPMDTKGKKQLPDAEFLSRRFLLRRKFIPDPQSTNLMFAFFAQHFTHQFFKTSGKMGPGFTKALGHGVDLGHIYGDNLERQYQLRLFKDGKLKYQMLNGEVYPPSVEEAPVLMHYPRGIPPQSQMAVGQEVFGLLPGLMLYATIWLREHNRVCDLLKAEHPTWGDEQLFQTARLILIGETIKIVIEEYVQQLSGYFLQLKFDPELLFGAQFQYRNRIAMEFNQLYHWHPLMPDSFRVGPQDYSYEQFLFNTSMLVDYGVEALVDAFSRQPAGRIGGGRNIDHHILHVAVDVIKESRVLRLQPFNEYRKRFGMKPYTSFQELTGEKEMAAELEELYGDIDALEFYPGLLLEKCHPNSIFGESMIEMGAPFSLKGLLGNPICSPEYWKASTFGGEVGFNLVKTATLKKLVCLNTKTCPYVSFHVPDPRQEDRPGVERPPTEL

In article PMC10755728, “Inhibitors of the Elastase LasB for the Treatment of Pseudomonas aeruginosa Lung Infections” (ACS Central Science, 2023):

How the values were obtained:
Conditions in all cases: 100 μM
[1] = target: MMP-1 (Homo sapiens, UniProt P03956); test: MMP-1 inhibition assay
[2] = target: MMP-2 (Homo sapiens, UniProt P08253); test: MMP-2 inhibition assay
[3] = target: MMP-3 (Homo sapiens, UniProt P08254); test: MMP-3 inhibition assay
[4] = target: TACE (Homo sapiens, UniProt P78536); test: TACE inhibitor screening kit
[5] = target: COX-1 (Ovis aries, UniProt P05979); test: Fluorometric COX-1 inhibitor assay

CC(C)CC(C(=O)Nc1ccc(S(=O)(=O)C(F)(F)F)cc1)P(=O)(O)O (centres unmarked)
n.i. (n.i. = <10% inhibition): % inhibition MMP-1 [1] | % inhibition MMP-2 [2] | % inhibition MMP-3 [3] | % inhibition TACE [4] | % inhibition COX-1 [5]
